Test results: patent publication US12383629B2, “DNA-affibody-drug nanoparticles for inhibiting the metastasis of cancer cells overexpressing HER2” (Arizona Board of Regents on behalf of Arizona State …, priority 2019, dated 2025)

Tested on: HER2 receptor
Assay: Western blot assay for HER2 targeting
Type: cell-based
Settings: BT474, 1 h; 1 μM DOX, 0.02 μM III, 1 μM Herceptin
Experimental: Western Blot Analysis—BT474 cells (50,000 cells/mL) were seeded in a 6-well cell culture plate and incubated in 1 mL of Gibco® RPMI 1640 medium supplemented with 10% fetal bovine serum (FBS) and 1% antibiotic-antimycotic mix antibiotic supplement at 37° C. for 24 h in a 5% CO2 atmosphere. […] The cells were washed with 1 mL 1×PBS buffer, and treated with 150 μL Cellstripper® non-enzymatic cell dissociation solution. After centrifugation at 500×g for 3 min, the cell pellets were washed with 150 μL 1×PBS buffer and treated with 60 μL, of 1×RIPA lysis buffer containing protease and phosphatase inhibitor cocktail (Sigma-Aldrich). After three cycle of freeze, thaw and sonication following by centrifugation at 15,000×g for 2 min at 4° C., the clear supernatant was collected.
Total protein concentration was measured using a BCA kit (Thermo Fisher Scientific). NuPAGE LDS Sample Buffer (4×) and NuPAGE Reducing Agent (10×) was added to the lysate which was denatured at 70° C. for 5 min. Equal amounts of lysates (25 μg) were loaded on a 4%-12% SDS-polyacrylamide Bis-Tris gels (Invitrogen) according to the manufacturer's recommendations and then proteins were transferred to nitrocellulose membranes. […]

Herceptin: monoclonal antibody drug targeting HER2, used as positive control [reference compound]
level of phosphorylated HER2 (Y1221/1222): increased
